Measurements taken from patent US20260382580A1, “USE OF NAPHTHYLUREA COMPOUNDS IN PREPARATION OF DRUGS FOR TREATING PTERYGIUM” (published 2026).

System: pterygium
Assay: NIH3T3 cell-induced rabbit pterygium model, pterygium area by slit lamp on Day 13
Settings: Day 13, eye drops three times a day
Experimental: In this experiment, a pterygium model was induced in New Zealand white rabbits by NIH3T3 cells, and the compounds in the present disclosure were administered topically by eye drops, 3 times per day, and on day 13, the size of the pterygium was assessed by photographing the anterior segment of the animal's eye with a slit lamp. The inhibitory effect of the compounds of the present disclosure was explored on rabbit pterygium.
18 male New Zealand white rabbits were randomly divided into three groups according to their body weight: 6 rabbits in each group were injected with NIH3T3 cells and matrix membrane through bulbar conjunctiva.
The animals in each group, as well as the replacement animals, were modeled.
NIH3T3 cell revival: Immediately after receiving the cells, the cells were stored in a liquid nitrogen tank until revival; DMEM+10% neonatal fetal bovine serum would expire after three months from preparation.
NIH3T3 cell culture: The revived cells were cultured in 5% CO2, 37 °C cell culture incubator, and the culture medium was changed twice a week, and cell passaging was performed when the cell density reached 70% to 75%. […]
Examination items: On Day 13 after modeling, the anterior segment of the animal's eye was photographed with a slit lamp, and the size of pterygium was evaluated and the area was measured.

Structure (SMILES): Cc1cccc(NC(=O)Nc2ccc(-c3cncc4[nH]nc(N)c34)c3ccccc23)c1
- change in pterygium area compared to the vehicle control group: decrease in pterygium area compared to the vehicle control group

Structure (SMILES): Cc1ccc(F)c(NC(=O)Nc2ccc(-c3ccc(OCCCN4CCCC4)c4[nH]nc(N)c34)c3ccccc23)c1
- change in pterygium area compared to the vehicle control group: decrease in pterygium area compared to the vehicle control group
